Results: US9738628B2, “Substituted 1H-indazol-1-OL analogs as inhibitors of beta catenin/Tcf protein-protein interactions” (University of Utah Research Foundation, priority 2012, dated 2017)

Test system: HCT116 colon cancer cell line
Assay: MTS-based cell proliferation inhibition assay
Set-up: species or system human
Details: dose-dependent (FIG. 2)

## On1nnc2cc(CCc3noc(=S)[nH]3)ccc21 [Compound 7, 3-(2-(1-hydroxy-1H-benzo[d][1,2,3]triazol-5-yl)ethyl)-1,2,4-oxadiazole-5(4H)-thione]
  inhibition of growth of colon cancer cell HCT116: inhibit the proliferation
